Measurements from patent publication US6555692B1, “Preparation and use of bifunctional molecules having DNA sequence binding specificity” (California Institute of Technology, priority 1996, dated 2003).
Each block holds one compound with its values, some of them ahead of it.

Columns and labels:
[1] = test system: 5′-TGGGGA-3′; assay: DNase I footprint titration, pSES9hp fragment; assay type: binding
[2] = test system: 5′-AGGGAGTCCCT-3′; assay: Quantitative DNase I footprint titration; settings: single base pair β/β mismatch sequence
[3] = test system: 5′-AGGGAATCCCT-3′; assay: Quantitative DNase I footprint titration
[4] = test system: 5′-AGGGAA-3′; assay: DNase I footprint titration; settings: hairpin conformation
[5] = test system: 5′-TGGCCA-3′; assay: DNase I footprint titration, pSES9hp fragment; assay type: binding
[6] = test system: 5′-TGTTAACA-3′; assay: DNase I footprint titrations; settings: 8 bp match site
[7] = test system: 5′-TGTGAACA-3′; assay: DNase I footprint titrations; settings: single base pair mismatch sequence
[8] = test system: 5′-TGTTA-3′; assay: Quantitative DNase I footprint titration, equilibrium association constant
[9] = test system: 5′-TGGACA-3′; assay: DNase I footprint titration; settings: single base pair mismatch sequence; pH 7.0, 22° C.
[10] = test system: 5′-TGGAACA-3′; assay: DNase I footprint titration
[11] = test system: 5′-TGTAACA-3′; assay: DNase I footprint titration; settings: pH 7.0, 22° C.

SMILES: CN(C)CCCNC(=O)CCNC(=O)c1cc(NC(=O)c2cc(NC(=O)c3cc(NC(=O)c4cc(NC(=O)CCCNC(=O)c5nc(NC(=O)c6nc(NC(=O)c7nc(NC(=O)c8nccn8C)cn7C)cn6C)cn5C)cn4C)cn3C)cn2C)cn1C [ImImImIm-γ-PyPyPyPy-β-Dp]
Ka [1]: 3e+07 M⁻¹

SMILES: CN(C)CCCNC(=O)CCNC(=O)c1cc(NC(=O)c2cc(NC(=O)c3cc(NC(=O)c4cc(NC(=O)CCNC(=O)c5cc(NC(=O)c6nc(NC(=O)c7nc(NC(=O)c8nccn8C)cn7C)cn6C)cn5C)cn4C)cn3C)cn2C)cn1C [ImImImPy-β-PyPyPyPy-β-Dp]
Ka [2]: 6.9e+08 M⁻¹ | lower affinity at β/β mismatch sequence ([3]; 5′-AGGGAGTCCCT-3′ vs 5′-AGGGAATCCCT-3′): at least 20 fold | enhancement in binding energy, 4-β-4 versus 4-γ-4 polyamide ([3]; binding site size enlarged from 6 to 11 base pairs): 2.1 kcal/mol

SMILES: CN(C)CCCNC(=O)CCNC(=O)c1cc(NC(=O)c2cc(NC(=O)c3cc(NC(=O)c4cc(NC(=O)CCCNC(=O)c5cc(NC(=O)c6nc(NC(=O)c7nc(NC(=O)c8nccn8C)cn7C)cn6C)cn5C)cn4C)cn3C)cn2C)cn1C [ImImImPy-γ-PyPyPyPy-β-Dp]
association constant Ka [4]: 4×10^8

SMILES: CN(C)CCCNC(=O)CCNC(=O)c1cc(NC(=O)c2cc(NC(=O)c3nc(NC(=O)c4nc(NC(=O)CCCNC(=O)c5cc(NC(=O)c6cc(NC(=O)c7nc(NC(=O)c8nccn8C)cn7C)cn6C)cn5C)cn4C)cn3C)cn2C)cn1C [ImImPyPy-γ-ImImPyPy-β-Dp]
reduced affinity at double base pair mismatch sequences ([5]; 5′-TGCGCA-3′ and 5′-TGGGGA-3′ vs 5′-TGGCCA-3′): at least 200 fold | equilibrium association constant Ka ([5]; match site, pH 7.0 and 22° C.): 1e+10 M⁻¹

SMILES: CN(C)CCCNC(=O)CCNC(=O)c1cc(NC(=O)c2cc(NC(=O)CCNC(=O)c3cc(NC(=O)c4cc(NC(=O)c5nc(NC(=O)CCCNC(=O)c6cc(NC(=O)c7cc(NC(=O)CCNC(=O)c8cc(NC(=O)c9cc(NC(=O)c%10nccn%10C)cn9C)cn8C)cn7C)cn6C)cn5C)cn4C)cn3C)cn2C)cn1C [ImPyPy-β-PyPy-γ-ImPyPy-β-PyPy-β-Dp]
equilibrium association constant Ka [6]: 2e+10 M⁻¹ | Ka [7]: 1e+09 M⁻¹

More lines, now with the values ahead:

apparent first order association constant Ka ([8]; 5′-TGTTA-3′ match site): 3e+08 M⁻¹ | specificity, match site relative to single base pair mismatch site ([8]; 5′-TGTTA-3′ match vs 5′-TGACA-3′ mismatch): 60 fold
SMILES: CN(C)CCCNC(=O)CCNC(=O)c1cc(NC(=O)c2cc(NC(=O)c3cc(NC(=O)CCCNC(=O)c4cc(NC(=O)c5cc(NC(=O)c6nccn6C)cn5C)cn4C)cn3C)cn2C)cn1C [ImPyPy-γ-PyPyPy-β-Dp]

Ka [9]: 6.8e+08 M⁻¹ | reduction of affinity of the 5′-TGGAACA-3′ complex relative to ImImPyPyPy-γ-ImPyPyPyPy-β-Dp [10]: 5 fold | loss in binding energy ([10]; 5′-TGGAACA-3′ complexes): ~1 kcal/mol | equilibrium association constant Ka [11]: 1.2e+10 M⁻¹
SMILES: CN(C)CCCNC(=O)CCNC(=O)c1cc(NC(=O)c2cc(NC(=O)c3cc(NC(=O)c4cc(NC(=O)c5nc(NC(=O)CCCNC(=O)c6cc(NC(=O)c7cc(NC(=O)c8cc(NC(=O)c9cc(NC(=O)c%10nccn%10C)cn9C)cn8C)cn7C)cn6C)cn5C)cn4C)cn3C)cn2C)cn1C [ImPyPyPyPy-γ-ImPyPyPyPy-β-Dp]

equilibrium association constant Ka [6]: 4e+09 M⁻¹ | Ka [7]: 2e+08 M⁻¹
SMILES: CN(C)CCCNC(=O)CCNC(=O)c1cc(NC(=O)c2cc(NC(=O)c3cc(NC(=O)c4cc(NC(=O)c5cc(NC(=O)c6nc(NC(=O)CCCNC(=O)c7cc(NC(=O)c8cc(NC(=O)c9cc(NC(=O)c%10cc(NC(=O)c%11cc(NC(=O)c%12nccn%12C)cn%11C)cn%10C)cn9C)cn8C)cn7C)cn6C)cn5C)cn4C)cn3C)cn2C)cn1C [ImPyPyPyPyPy-γ-ImPyPyPyPyPy-β-Dp]
